Biological target: Mammalian PARP, isolated from Hela cell nuclear extract (Homo sapiens, UniProt P09874)
Assay: PARP inhibition assay (FlashPlate, 3H-NAD incorporation) to determine IC50
Details: mean IC50
Protocol: In order to assess the inhibitory action of the compounds, the following assay was used to determine IC50 values (Dillon, et al., JBS., 8(3), 347-352 (2003)).
Mammalian PARP, isolated from Hela cell nuclear extract, was incubated with Z-buffer (25 mM Hepes (Sigma); 12.5 mM MgCl2 (Sigma); 50 mM KCl (Sigma); 1 mM DTT (Sigma); 10% Glycerol (Sigma) 0.001% NP-40 (Sigma); pH 7.4) in 96 well FlashPlates (TRADE MARK) (NEN, UK) and varying concentrations of said inhibitors added. All compounds were diluted in DMSO and gave final assay concentrations of between 10 and 0.01 μM, with the DMSO being at a final concentration of 1% per well. The total assay volume per well was 40 μL.
After 10 minutes incubation at 30° C. the reactions were initiated by the addition of a 10 μl reaction mixture, containing NAD (5 μM), ^3H-NAD and 30mer double stranded DNA-oligos. Designated positive and negative reaction wells were done in combination with compound wells (unknowns) in order to calculate % enzyme activities. The plates were then shaken for 2 minutes and incubated at 30° C. for 45 minutes.
Following the incubation, the reactions were quenched by the addition of 50 μl 30% acetic acid to each well. The plates were then shaken for 1 hour at room temperature.
The plates were transferred to a TopCount NXT (TRADE MARK) (Packard, UK) for scintillation counting. Values recorded are counts per minute (cpm) following a 30 second counting of each well.
The % enzyme activity for each compound is then calculated using the following equation: […]
IC50 values (the concentration at which 50% of the enzyme activity is inhibited) were calculated, which are determined over a range of different concentrations, normally from 10 μM down to 0.001 μM. Such IC50 values are used as comparative values to identify increased compound potencies.

By UniProt entry, the sequences of proteins in these tests, tags left out.
UniProt P09874, whole entry: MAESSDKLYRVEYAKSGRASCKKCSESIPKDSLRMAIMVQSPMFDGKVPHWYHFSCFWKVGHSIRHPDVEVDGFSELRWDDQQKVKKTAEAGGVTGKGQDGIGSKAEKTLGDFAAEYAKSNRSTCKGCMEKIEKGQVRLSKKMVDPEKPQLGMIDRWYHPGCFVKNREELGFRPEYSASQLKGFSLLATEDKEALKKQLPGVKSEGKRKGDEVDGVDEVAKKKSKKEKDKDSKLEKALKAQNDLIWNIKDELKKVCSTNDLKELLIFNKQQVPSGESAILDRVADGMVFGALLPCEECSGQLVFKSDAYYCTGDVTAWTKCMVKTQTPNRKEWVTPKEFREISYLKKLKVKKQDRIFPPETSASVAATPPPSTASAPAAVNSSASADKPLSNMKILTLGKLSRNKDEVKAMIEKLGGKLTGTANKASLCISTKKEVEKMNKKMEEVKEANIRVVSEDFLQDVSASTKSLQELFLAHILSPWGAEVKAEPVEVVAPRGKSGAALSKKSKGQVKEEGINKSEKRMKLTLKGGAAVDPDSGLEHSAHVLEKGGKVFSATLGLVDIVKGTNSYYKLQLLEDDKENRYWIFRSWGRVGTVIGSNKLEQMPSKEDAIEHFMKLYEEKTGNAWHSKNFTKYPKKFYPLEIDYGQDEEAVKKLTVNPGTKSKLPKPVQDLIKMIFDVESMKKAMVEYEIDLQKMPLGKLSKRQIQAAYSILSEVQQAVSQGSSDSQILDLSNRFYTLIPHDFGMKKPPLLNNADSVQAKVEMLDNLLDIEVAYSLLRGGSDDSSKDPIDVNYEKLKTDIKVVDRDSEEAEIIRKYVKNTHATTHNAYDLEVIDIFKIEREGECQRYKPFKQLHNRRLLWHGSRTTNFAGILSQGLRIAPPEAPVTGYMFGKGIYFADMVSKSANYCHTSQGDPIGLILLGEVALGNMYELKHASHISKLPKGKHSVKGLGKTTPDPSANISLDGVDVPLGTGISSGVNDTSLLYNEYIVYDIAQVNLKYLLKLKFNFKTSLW

IC50 [µM] | SMILES
0.082 | O=c1[nH]nc(Cc2cccc(-c3cccs3)c2)c2ccccc12
0.236 | O=C(Cn1cnnn1)Nc1ccc(-c2cc(Cc3n[nH]c(=O)c4ccccc34)ccc2F)cc1
0.904 | NCCN1CCN(C(=O)c2ccc(-c3cc(Cc4n[nH]c(=O)c5ccccc45)ccc3F)cc2)C1=O
0.056 | O=C(Cn1cnnn1)Nc1cccc(-c2cc(Cc3n[nH]c(=O)c4ccccc34)ccc2F)c1

Reference: patent publication US20080280910A1, “PHTHALAZINONE DERIVATIVES” (priority 2007, published 2008)
